Biological target: VEGFR3 cytoplasmic domain (amino acids 818-1177, lacking 949-1002 of UniProt accession number P35916) (Homo sapiens (Human), UniProt P35916, DEL949-1002)
Details: values marked *: modified assay, N-terminal Hexa-His-fusion protein

The chains behind the UniProt entries cited, without tags or fusion partners. A line that says so, or that is headed by a name, gives the form on record, which may keep a tag or linker.
UniProt P35916, other isoform, or with tags, fused parts or gaps del 949-1002: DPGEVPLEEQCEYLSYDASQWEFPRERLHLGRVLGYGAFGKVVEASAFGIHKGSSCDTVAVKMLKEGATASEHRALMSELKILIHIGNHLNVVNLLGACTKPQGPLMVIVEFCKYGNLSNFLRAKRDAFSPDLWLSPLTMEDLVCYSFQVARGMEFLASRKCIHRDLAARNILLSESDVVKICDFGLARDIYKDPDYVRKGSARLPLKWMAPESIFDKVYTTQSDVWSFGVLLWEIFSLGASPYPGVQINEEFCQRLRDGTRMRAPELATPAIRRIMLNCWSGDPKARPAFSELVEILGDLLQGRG

Structure (SMILES): NC(=O)Cc1cccnc1CCc1nc(Nc2ccc(C3CCCNC3)cc2)ncc1C(F)(F)F (stereo not shown) [Compound 39, 2-(2-(2-(2-((4-(Piperidin-3-yl)phenyl)amino)-5-(trifluoromethyl)pyrimidin-4-yl)ethyl)pyridin-3-yl)acetamide]
- IC50: 23 nM
